Patent US10378062B2, “Natural-killer/T-cell lymphoma (NKTCL) susceptibility prediction, diagnosis and therapy” (SINGAPORE HEALTH SERVICES PTE LTD, priority 2011, dated 2019)

Test system: STAT5 phosphorylation in KHYG-1 (JAK3 wild-type) cell line
Assay: pSTAT5 immunoblotting in KHYG-1 cells treated with CP-690,550
Assay type: cell-based
Details: KHYG-1, increasing concentrations of CP-690,550, 48 h
Protocol: Experiments were repeated at least three times.
NK-S1 is a cell line established from a previously described NKTCL xenograft(7). The xenograft was derived from metastatic tumor of the testis from the same patient found to have both JAK1 (Y652D) and JAK3 (A572V) mutations. NK-S1 was cultured for more than 60 passages in DMEM medium supplemented with antibiotics, heat-inactivated FBS (10%) and equine serum (ES) (10%). […] KHYG-1 is an IL-2 dependent aggressive NK leukemia cell line obtained from the Japanese Collection of Research Bioresources, and it was cultured in RPMI medium supplemented with antibiotics, heat-inactivated FBS (10%), ES (10%) and 200 IU/ml of recombinant human IL-2 (Proleukin, Novartis)^7. […] K562 (CCL-234, ATC) is a chronic myeloid leukemia (CML) cell line positive for the BCR-ABL fusion gene.
Cells were washed with ice-cold phosphate buffer saline (PBS) and lysed in 50 μl of ice-cold RIPA buffer [25 mM Tris-HCL, pH 7.6, 150 mM NaCl, 1% Nonidet P-40, 1% sodium deoxycholate, 0.1% SDS, 1× Phosphatase Inhibitor (Cat. No. 78420, Thermo Fisher Scientific), 1× Protease Inhibitor (Cat. No. 12978000, Roche Diagnostics) and 1 mM Sodium Orthovanadate]. […] After centrifugation at 14,000 g for 15 minutes at 4° C., supernatants were removed and protein concentration was determined using Bio-Rad Protein assay (Cat. No. 500-0006, Bio-Rad Laboratories). […]

C[C@@H]1CCN(C(=O)CC#N)C[C@@H]1N(C)c1ncnc2[nH]ccc12 [CP-690,550, 3-[(3R,4R)-4-methyl-3-[methyl(7H-pyrrolo[2,3-d]pyrimidin-4-yl)amino]piperidin-1-yl]-3-oxopropanenitrile]
pSTAT5 level by immunoblotting: dose-dependent reduction of pSTAT5
